Sequences of proteins named here, by UniProt entry; tags and fusion partners are left off.
UniProt Q15788, whole entry: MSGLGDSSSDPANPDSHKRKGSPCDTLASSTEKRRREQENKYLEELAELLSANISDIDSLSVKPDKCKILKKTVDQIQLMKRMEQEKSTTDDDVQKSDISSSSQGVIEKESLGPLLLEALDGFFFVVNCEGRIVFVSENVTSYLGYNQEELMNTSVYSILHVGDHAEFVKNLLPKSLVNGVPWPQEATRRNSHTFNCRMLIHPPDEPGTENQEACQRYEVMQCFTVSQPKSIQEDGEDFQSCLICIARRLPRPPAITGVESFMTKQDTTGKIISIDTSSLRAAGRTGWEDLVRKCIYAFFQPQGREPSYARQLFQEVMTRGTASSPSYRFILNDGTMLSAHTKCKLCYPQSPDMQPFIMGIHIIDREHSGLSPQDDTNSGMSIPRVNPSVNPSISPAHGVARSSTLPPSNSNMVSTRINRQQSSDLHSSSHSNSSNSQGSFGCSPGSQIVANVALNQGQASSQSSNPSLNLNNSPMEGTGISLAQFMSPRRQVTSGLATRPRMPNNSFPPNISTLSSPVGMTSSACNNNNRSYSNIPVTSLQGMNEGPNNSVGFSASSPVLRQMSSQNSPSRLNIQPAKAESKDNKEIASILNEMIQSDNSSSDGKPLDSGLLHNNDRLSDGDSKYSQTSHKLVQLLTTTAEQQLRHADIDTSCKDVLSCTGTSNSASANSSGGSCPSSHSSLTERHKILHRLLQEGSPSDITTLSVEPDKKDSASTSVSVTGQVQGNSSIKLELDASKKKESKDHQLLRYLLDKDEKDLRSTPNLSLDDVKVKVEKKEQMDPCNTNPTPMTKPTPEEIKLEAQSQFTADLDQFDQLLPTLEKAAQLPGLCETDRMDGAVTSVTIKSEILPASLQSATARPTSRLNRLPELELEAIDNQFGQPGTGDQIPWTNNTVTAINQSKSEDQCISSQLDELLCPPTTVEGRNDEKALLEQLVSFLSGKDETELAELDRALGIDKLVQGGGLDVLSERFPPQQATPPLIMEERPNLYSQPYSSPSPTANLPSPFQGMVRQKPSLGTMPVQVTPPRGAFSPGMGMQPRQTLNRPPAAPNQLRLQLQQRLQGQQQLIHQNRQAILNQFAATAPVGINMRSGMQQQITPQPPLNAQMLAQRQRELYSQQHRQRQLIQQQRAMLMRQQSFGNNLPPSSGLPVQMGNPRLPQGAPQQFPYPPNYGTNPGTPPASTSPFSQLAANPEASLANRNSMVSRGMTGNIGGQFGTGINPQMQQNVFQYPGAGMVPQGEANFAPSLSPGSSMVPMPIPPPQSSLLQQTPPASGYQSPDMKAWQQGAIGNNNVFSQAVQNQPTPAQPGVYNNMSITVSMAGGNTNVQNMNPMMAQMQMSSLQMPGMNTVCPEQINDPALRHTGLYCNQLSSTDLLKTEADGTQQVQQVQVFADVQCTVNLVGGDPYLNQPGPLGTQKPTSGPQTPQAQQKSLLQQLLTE

The list shows a part of the results, in another mix than the full data. Activity calls are given as the source filed them.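 The calls were made as follows: active = mean inhibition above 46.68%, the untreated control wells mean plus 3 SD; inactive = the rest.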
What follows are molecules tested against Nuclear receptor coactivator 1 (Homo sapiens) (UniProt Q15788) (assay: SRC1 coactivator transcriptional activity inhibitors, confirmation, cell-based, luminescence, quadruplicate (AID 588820;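 also: 0% = DMSO wells and 100% = gossypol 36 µM treated wells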)). Settings: HEK293 GAL4-SRC1 luciferase reporter, at 3.6 µM, stronger effect = higher value.
COc1cccc(C(c2nnnn2C2CCCCC2)N2CCC(n3c(=O)[nH]c4ccccc43)CC2)c1OC (configuration not stated) was tested, and the inhibition was inactive: -28.9%.
In the case of O=c1[nH]c2ccccc2n1C1CCN(C(c2ccccc2)c2nnnn2C2CCCCC2)CC1 (configuration not stated), the inhibition is reported as inactive: -21.3%.

— PubChem BioAssay AID588820 (The Scripps Research Institute Molecular Screening Center, 2011)
